From patent US8999957B2, “Heterocyclic compounds as ERK inhibitors” (Merck Sharp & Dohme Corp., priority 2010, dated 2015)

Sequences of proteins named here, by UniProt entry; tags and fusion partners are left off.
UniProt P63085, whole entry: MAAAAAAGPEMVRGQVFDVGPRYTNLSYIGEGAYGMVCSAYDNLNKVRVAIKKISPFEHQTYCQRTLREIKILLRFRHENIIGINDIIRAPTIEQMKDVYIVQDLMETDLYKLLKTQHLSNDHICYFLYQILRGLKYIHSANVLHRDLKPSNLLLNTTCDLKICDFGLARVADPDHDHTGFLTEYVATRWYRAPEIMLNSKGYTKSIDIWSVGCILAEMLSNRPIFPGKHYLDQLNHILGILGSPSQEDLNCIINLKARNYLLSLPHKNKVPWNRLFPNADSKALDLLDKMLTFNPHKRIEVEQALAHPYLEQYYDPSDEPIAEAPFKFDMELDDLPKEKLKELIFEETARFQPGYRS

Target: fully phosphorylated, active Mouse ERK2 protein (Mus musculus (Mouse), UniProt P63085)
Assay: Active ERK2 (aERK) IMAP assay, condition 1
Settings: read-out: aERK IC50; aERK assay condition 1, 30 μM ATP

## COc1cccc(F)c1CN1C[C@@H](NC(=O)c2ccc3[nH]nc(-c4ccc5nn(C)cc5c4)c3c2)C[C@@H](C(F)(F)F)C1
  IC50: 810 nM
